The values that follow are results of earlier work, collected in publication PMC6263361 (Molecules, 2011).

By UniProt entry, the sequences of proteins in these tests, tags left out. Where a name states a change or a piece, a line headed by the entry shows the natural chain unless it says otherwise.
UniProt P11388: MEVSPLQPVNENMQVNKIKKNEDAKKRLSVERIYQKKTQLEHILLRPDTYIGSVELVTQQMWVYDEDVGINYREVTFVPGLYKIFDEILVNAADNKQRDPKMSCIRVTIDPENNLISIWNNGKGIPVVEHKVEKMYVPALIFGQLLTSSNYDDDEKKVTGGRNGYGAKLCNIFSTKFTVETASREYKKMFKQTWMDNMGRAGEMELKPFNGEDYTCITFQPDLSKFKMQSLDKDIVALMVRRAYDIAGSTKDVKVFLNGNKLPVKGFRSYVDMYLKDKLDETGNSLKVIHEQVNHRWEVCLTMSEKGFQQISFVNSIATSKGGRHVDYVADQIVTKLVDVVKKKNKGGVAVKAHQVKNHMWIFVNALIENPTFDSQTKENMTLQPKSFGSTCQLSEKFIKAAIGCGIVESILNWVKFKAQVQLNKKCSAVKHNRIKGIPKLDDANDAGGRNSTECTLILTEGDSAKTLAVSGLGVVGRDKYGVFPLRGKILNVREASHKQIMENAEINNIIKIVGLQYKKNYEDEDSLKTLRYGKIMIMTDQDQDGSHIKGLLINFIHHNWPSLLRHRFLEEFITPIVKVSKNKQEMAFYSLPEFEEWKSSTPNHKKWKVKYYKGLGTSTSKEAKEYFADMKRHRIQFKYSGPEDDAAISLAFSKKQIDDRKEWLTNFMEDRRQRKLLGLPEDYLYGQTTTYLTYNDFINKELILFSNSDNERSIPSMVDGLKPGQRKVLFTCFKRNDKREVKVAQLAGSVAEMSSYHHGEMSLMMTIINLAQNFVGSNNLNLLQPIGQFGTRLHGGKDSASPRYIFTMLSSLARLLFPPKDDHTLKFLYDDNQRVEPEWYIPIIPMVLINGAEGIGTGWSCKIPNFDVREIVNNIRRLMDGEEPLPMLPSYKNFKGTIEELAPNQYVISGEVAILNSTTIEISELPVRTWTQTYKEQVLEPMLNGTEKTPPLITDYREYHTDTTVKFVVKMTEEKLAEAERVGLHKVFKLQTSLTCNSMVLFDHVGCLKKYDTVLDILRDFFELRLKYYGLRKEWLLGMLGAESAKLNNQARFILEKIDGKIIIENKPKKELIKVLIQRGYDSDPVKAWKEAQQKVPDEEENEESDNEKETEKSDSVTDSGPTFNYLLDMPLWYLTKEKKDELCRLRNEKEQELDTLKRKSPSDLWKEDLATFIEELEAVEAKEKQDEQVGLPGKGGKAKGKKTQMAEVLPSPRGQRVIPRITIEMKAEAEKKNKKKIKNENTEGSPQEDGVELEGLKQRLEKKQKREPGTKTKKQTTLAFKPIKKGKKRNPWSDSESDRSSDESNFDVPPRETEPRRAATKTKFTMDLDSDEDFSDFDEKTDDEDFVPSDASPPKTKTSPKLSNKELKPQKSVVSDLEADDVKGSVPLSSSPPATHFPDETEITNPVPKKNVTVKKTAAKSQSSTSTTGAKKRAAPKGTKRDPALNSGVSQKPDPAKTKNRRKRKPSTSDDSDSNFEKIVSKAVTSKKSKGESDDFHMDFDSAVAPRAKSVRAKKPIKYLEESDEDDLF

For the data set, the target named is T1, top II (Homo sapiens, UniProt P11388).
T1 construct: purchased usb
Also on record: method as in PMID 6092381. The note with it: cited from earlier work.

In the case of `COc1cc([C@@H]2c3cc4c(cc3[C@@H](O[C@@H]3O[C@@H]5CO[C@@H](C)O[C@H]5[C@H](O)[C@H]3O)[C@H]3COC(=O)[C@H]23)OCO4)cc(OC)c1O` [Etoposide], the “top II inhibitory concentration in vitro” value is 62 µM.
